# Earlier results, collected in patent publication US7317012B2, “Bicyclic heterocycles as cannabinoind-1 receptor modulators” (Bristol-Myers Squibb Company, priority 2005, dated 2008).
# Settings: chronic administration for two weeks
compound,measurement,value
Cc1c(C(=O)NN2CCCCC2)nn(-c2ccc(Cl)cc2Cl)c1-c1ccc(I)cc1 [AM-251],adipose tissue mass,decreased adipose tissue mass
